Coupling enz – inhibits coupling enzyme system, counter-screen for aldolase hits | activity change, negative = inhibition, % at 58.2 µM, hits read low | coupling enzyme system counterscreen, AmpLite Red fluorescence | AID 2472 | actives 0.67% (n = 290,000); in the data active means activity change below about -30%; further: on the % scale 0 is the no-effect control and ±100 the full control effect
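Counterscreen lacking aldolase: glyceraldehyde-3-phosphate coupling-enzyme reagent preincubated 10 min at RT with compound (at 57.5 uM final), then substrate/coupling system with AmpLite Red added; fluorescence read at 525/598 nm after 20 min RT.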
miR-21 reporter – raises the signal of a miR-21 reporter | Potency, µM (doses to about 38.3 µM), for inactives: top-dose reporter change, positive = more light | HeLa miR-21 FLuc reporter, luciferase, 48 h | AID 2288 | 340,000 tested, under 10 active; active = well fitted rising curve with a large enough effect; inconclusive = small, poorly fitted or top-dose-only effect; inactive = no such curve, though single readings can be large or run the other way;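 also: % of control where 0% means no effect; miR-21 action dims this reporter so a rising signal means less miR-21 action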
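Compounds were titrated across several concentrations (up to approximately 40 uM) and incubated 48 hours with HeLa miR-21-FLuc reporter cells (miR-21 target sequence downstream of FLuc, endogenous miR-21). Readout was firefly luciferase luminescence after lytic detection reagent.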
GALK inh – galactokinase (human) inhibition; Potency, µM (top dose mostly 57.5 µM), for inactives: at the highest dose activity change, negative = inhibition, usual class: inhibitors; Purified GALK, Kinase-Glo residual ATP luminescence; actives 0.007% (n = 270,000); AID 1868; P51570; further: potency means the concentration at half of the fitted maximal effect; on the % scale 0 is the no-effect control and ±100 the full control effect
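Luminescence from leftover ATP (Ultra-Glo luciferase/luciferin) served as read-out after a 1 h room-temperature reaction of 5 nM GALK with 35 uM ATP and 100 uM galactose.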
uPA generation – inhibitors of cell surface uPA generation. cell surface uPA generation assay, qHTS. Potency, µM (series often up to 38.3 µM), for the others: at the top dose activity change, negative = inhibition, most hits filed as inhibitors. actives 0.31% (n = 330,000). AID 540303; active means well fitted inhibition curve with a large enough effect; inconclusive means small, poorly fitted or top-dose-only effect; inactive means no such curve, though single readings can be large or run the other way; tested in mouse RAW 264.7 cells; further: potency means the concentration at half of the fitted maximal effect; on the % scale 0 is the no-effect control and ±100 the full control effect; nearly all actives have a fitted effect of over 55% in size
B2AR arrestin – beta2AR (human) beta-arrestin recruitment activity; AID 492947; P07550; beta-arrestin recruitment to beta2AR, cell-based reporter; Potency, µM (highest dose often 46.1 µM), inactives show at the top dose activation, usual class: activators; actives 0.02% (n = 330,000);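 further: potency means the concentration at half of the fitted maximal effect; 0% = DMSO controls and full agonism = EC100 isoproterenol or metaproterenol; nearly all actives have a fitted effect of over 65% in size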
Giardia killer – kills Giardia lamblia; activity change, % at 7.66 µM, hits read low; AID 540267; Giardia lamblia trophozoite viability; actives 0.15% (n = 340,000); in the data active means activity change below about -80%; inconclusive means between about -30% and that limit;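 further: parasites exposed to compound for two days anaerobically before the ATP read; on the % scale 0 is the no-effect control and ±100 the full control effect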
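Trophozoite viability was measured as ATP-dependent luminescence, read 15-30 min after reagent addition. Before that, parasites at 100 cells/well were exposed to compounds for 48 h, anaerobically, at 37 deg C.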
* marks the source's active call; other numbers are inactive results; ? = inconclusive; · = not tested or not shown. Compounds with a hit are over-represented: about 0.92% of the library has one in this group of screens. Unless noted, the call rests on the fitted dose curve; in most records, active means well fitted curve in the direction sought with a large enough effect; inconclusive means small, poorly fitted or top-dose-only effect, or another doubt; inactive means no such curve, though single readings can be large; an effect the other way counts as inactive or inconclusive.

Screens in order: Coupling enz, miR-21 reporter, GALK inh, uPA generation, B2AR arrestin, Giardia killer
COc1cccc(CNc2ccc(N3CCCCC3)cc2)c1OC
 : -34*, -2%, 0%, -1%, 0%, 11
CCOc1ccc(C(N)=O)cc1OC
 : 0, -2%, 1%, -4%, 0%, -4
CCOc1ccc(N)cc1OC
 : -33*, -9%, 11%, -9%, 0%, -15
Cc1csc2nc(CSc3nc4ccccc4o3)cn12
 : -51*, -52%, -2%, 2%, 13%, 13
O=C(CSc1nc2ccccc2nc1Cc1ccc(F)cc1)Nc1ccc2c(c1)OCO2
 : ·, -5%, ·, ·, ·, ·
CSc1nc2ccc(NC(=O)NC(=O)c3c(F)cccc3F)cc2s1
 : 2, -14%, ·, 6%, -1%, 12
COc1cccc(F)c1C(=O)NC(=O)Nc1ccc2nc(C)oc2c1
 : -31*, 0%, 1%, 8%, 0%, 10
O=C1C=C(N2CCCCC2)c2ccccc2C1=O
 : ·, ·, ·, -16%, ·, -11
CC(C)(C)C1=CC(=O)C(N2CCOCC2)=CC1=O
 : -58*, -9%, -2%, -5%, 0%, -1
O=C(NCc1ccccc1)c1cccn1-c1nnc(N2CCCCC2)s1
 : ·, 3%, ·, ·, ·, ·

Whole records as entered above.
CCOc1ccc(N)cc1OC is listed with Coupling enz = -33*; miR-21 reporter = -9%; GALK inh = 11%; uPA generation = -9%; B2AR arrestin = 0%; Giardia killer = -15
COc1cccc(CNc2ccc(N3CCCCC3)cc2)c1OC is listed with Coupling enz = -34*; miR-21 reporter = -2%; GALK inh = 0%; uPA generation = -1%; B2AR arrestin = 0%; Giardia killer = 11

The results go on:
Screens in order: Coupling enz, miR-21 reporter, GALK inh, uPA generation, B2AR arrestin, Giardia killer
COc1ccc(-c2cc(=O)c3c(O)c(OC)c(O)cc3o2)cc1
 : 1, -44%, 0%, 10µM*, 0%, ?
COc1c(OC)c(O)c2c(=O)cc(-c3c(O)cccc3O)oc2c1OC
 : -14, -41%, 0%, 7.1µM*, 3%, -16
CC(=O)Nc1ccc(NC(=O)C2Cc3ccccc3N2C(=O)c2ccccc2)cc1 (stereo unspecified)
 : ·, 0%, ·, ·, ·, ·
CN1CC=C2C(C#N)=C(N)C(C#N)(C#N)[C@H](c3ccoc3)[C@H]2C1
 : -31*, 4%, -2%, 1%, 1%, 2
COc1ccc(OCC(=O)Nc2ccc(-c3nc4cc(C)cc(C)c4o3)cc2)cc1
 : ·, -51%, ·, ·, ·, ·
CC(=O)N(C)C1=C(O)c2ccccc2C(=O)C1=O
 : ·, -12%, -1%, -2%, -1%, 18
CC(=O)N(C1=C(N)C(=O)c2ccccc2C1=O)C(C)C
 : -43*, 15%, 0%, 1%, -1%, -15
Nc1ccc(N2CCOCC2)c2nonc12
 : -48*, -18%, 3%, -14%, -1%, -9
O=C(Nc1ccc(N2CCOCC2)c2nonc12)C1CCCC1
 : -41*, -45%, -5%, 0%, 0%, 24
O=c1/c(=C\c2cc([N+](=O)[O-])cc([N+](=O)[O-])c2O)sc2nc3ccccc3n12
 : -32*, -3%, -24%, -4%, 0%, 10
O=c1/c(=C/c2ccccn2)sc2nc3ccccc3n12
 : 0, -56%, 9%, 3%, -1%, -4
Cc1[nH]n(S(=O)(=O)Cc2ccccc2)c(=O)c1N=Nc1ccccc1Cl
 : 6, -12%, 7%, 3%, 0%, -89*
Cc1cc(O)c(C(C)C)cc1N=Cc1cc([N+](=O)[O-])ccc1O
 : -28, -1%, ·, 5%, -1%, 14
Cc1cc(O)c(C(C)C)cc1N=Cc1ccccc1O
 : -51*, 7%, -2%, ?, 0%, -4
O=[N+]([O-])c1ccc(Sc2cccc3cccnc23)cc1
 : -42*, -51%, 0%, 9%, 0%, -2
O=[N+]([O-])c1ccc(COc2cccc3cccnc23)cc1
 : -9, -55%, 0%, 0%, 0%, -1
O=[N+]([O-])c1cc(Cl)ccc1Sc1cccc2cccnc12
 : -23, 1%, 4%, -5%, -1%, 10
O=[N+]([O-])c1ccc(Sc2cccc3cccnc23)c([N+](=O)[O-])c1
 : -47*, ?, -3%, 10µM*, ?, -15
CC(C)Cn1cc(NC(=O)NCc2ccccc2Cl)c2ccccc2c1=O
 : ·, -1%, ·, ·, ·, ·
FC(F)c1nc2ccccc2[nH]1
 : 3, -6%, 1%, 3%, 0%, -7
c1ccc2[nH]c3cc4ncnc4cc3nc2c1
 : -43*, -44%, ·, -2%, -1%, -17
O=C(NCc1ccco1)Nc1ccc2nsnc2c1
 : -38*, -1%, 3%, -18%, 0%, -4
O=C(NCCCO)Nc1ccc2nc(-c3ccco3)c(-c3ccco3)nc2c1
 : -43*, 2%, -4%, ·, -2%, ·
O=C(NCc1ccco1)Nc1ccc(Br)cc1
 : -1, -38%, -1%, 2%, 0%, -19

Entries from the list above that contain two or more sulfur atoms (2):
Screens in order: Coupling enz, miR-21 reporter, GALK inh, uPA generation, B2AR arrestin, Giardia killer
Cc1csc2nc(CSc3nc4ccccc4o3)cn12
 : -51*, -52%, -2%, 2%, 13%, 13
CSc1nc2ccc(NC(=O)NC(=O)c3c(F)cccc3F)cc2s1
 : 2, -14%, ·, 6%, -1%, 12

Compound activity from PubChem BioAssay.
